Measured values as given in PubChem BioAssay AID1446 (The Scripps Research Institute Molecular Screening Center, 2008).
The entries are a selection whose mix differs from that of the whole data set. The source made the active and inactive calls.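 The calls were made as follows: active = inhibition above the campaign mean plus 3 SD over all tested compounds (cut at about 24% in these data); inactive = the rest.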

Assay: viability loss in Ba/F3 EpoR-JAK2V617F cells – cell-based, luminescence, JAK2V617F inhibitor project, primary screen (AID 1446);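 also: cytokine-independent growth of Ba/F3 cells driven by EpoR plus mutant JAK2; 0% = DMSO-treated cells and 100% = JAK inhibitor I control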
Details: ATP luminescence, at 5.6 µM, hits give high values
With `O=[N+]([O-])c1ncn(CCn2cnc([N+](=O)[O-])n2)n1` the inhibition was inactive: -1.17%.
In the case of `O=C(OC1CN2CCC1CC2)c1cccc(Cl)c1` (configuration not stated), the inhibition is reported as inactive: -0.97%.
In the case of `C(Cc1nn[nH]n1)Cc1nn[nH]n1`, the inhibition is reported as inactive: 0.37%.
In the case of `Nc1ccc([As](=O)(O)c2ccc([N+](=O)[O-])cc2)cc1`, the inhibition is reported as inactive: -3.3%.
With `c1ccc(-c2nn[nH]n2)c(-c2nn[nH]n2)c1` the inhibition was inactive: -1.49%.
With `Cc1ccc(NP(=O)(Oc2cccc(C)c2)Oc2cccc(C)c2)nc1` the inhibition was inactive: -4.39%.
With `CCOC(=O)NC(Sc1ccccc1)C(Cl)(Cl)Cl` (configuration not stated) the inhibition was inactive: -0.51%.
In the case of `O=C(NC1CCS(=O)(=O)C1)NP(=S)(Oc1ccccc1)Oc1ccccc1` (configuration not stated), the inhibition is reported as inactive: 0.21%.
For `CCNC(=S)/N=C(\N)N[N+](=O)[O-]`, the inhibition was inactive: 0.89%.
In the case of `CCC(=O)N1C2C3N(C(=O)CC)C1C1N(C(=O)CC)C(C(N1C(=O)CC)N3C(=O)CC)N2C(=O)CC`, the inhibition is reported as inactive: -0.74%.
For `COC(=O)c1cc2c(s1)N=C(c1ccccc1)N(C)P2(=O)N1CCOCC1` (configuration not stated), the inhibition was inactive: -0.64%.
For `CC(=O)NC(SC(=S)N(CC(C)C)CC(C)C)C(Cl)(Cl)Cl` (configuration not stated), the inhibition was active: 47.4%.
For `Cc1ccc(OP(=O)(Nc2ccccn2)Oc2ccc(C)cc2)cc1`, the inhibition was inactive: -5.69%.
In the case of `Cc1ccccc1OP(=O)(Nc1ccccn1)Oc1ccccc1C`, the inhibition is reported as inactive: -3.4%.
With `O=c1c2cc([N+](=O)[O-])ccc2[nH]c2c([N+](=O)[O-])cc([N+](=O)[O-])cc12` the inhibition was inactive: -2.14%.
In the case of `CN(C)C(=O)Oc1noc2ccccc12`, the inhibition is reported as inactive: -3.89%.
With `O=P1(Nc2nc3ccc(Cl)cc3s2)COc2ccccc2O1` (configuration not stated) the inhibition was inactive: 1.19%.
In the case of `CCOc1ccc(C2=NCC(CBr)S2)cc1` (configuration not stated), the inhibition is reported as inactive: 2.56%.
With `CC(C)(C)C(=O)NC(Sc1ccccc1)C(Cl)(Cl)Cl` (configuration not stated) the inhibition was inactive: -3.19%.
For `CC(=O)Nc1ccc([As](=O)(O)O)c(O)c1`, the inhibition was inactive: -1.26%.
In the case of `CC(=O)Nc1ccc(Oc2c([N+](=O)[O-])cc([N+](=O)[O-])cc2[N+](=O)[O-])cc1`, the inhibition is reported as inactive: 2.17%.
For `Cc1ccc(N/C(=N/P(=O)(N2CCOCC2)N2CCOCC2)N2CCOCC2)cc1`, the inhibition was inactive: 2.62%.
With `NC(=O)c1cc([N+](=O)[O-])cc([N+](=O)[O-])c1N` the inhibition was inactive: -0.1%.
For `CN1CCCC(OC(=O)C(c2ccccc2)c2ccccc2)C1` (configuration not stated), the inhibition was inactive: -0.12%.
For `Clc1ccc(Cl)c(NC2=NCC(CBr)S2)c1` (configuration not stated), the inhibition was inactive: -0.31%.
For `COc1ccccc1OP(=O)(Nc1ccc(C)cn1)Oc1ccccc1OC`, the inhibition was inactive: -4.64%.
For `Cc1ccc(OP(=O)(Nc2nccs2)Oc2ccc(C)cc2)cc1`, the inhibition was inactive: -0.95%.
